By UniProt entry, the sequences of proteins in these tests, tags left out. Where a name states a change or a piece, a line headed by the entry shows the natural chain unless it says otherwise.
UniProt P25105: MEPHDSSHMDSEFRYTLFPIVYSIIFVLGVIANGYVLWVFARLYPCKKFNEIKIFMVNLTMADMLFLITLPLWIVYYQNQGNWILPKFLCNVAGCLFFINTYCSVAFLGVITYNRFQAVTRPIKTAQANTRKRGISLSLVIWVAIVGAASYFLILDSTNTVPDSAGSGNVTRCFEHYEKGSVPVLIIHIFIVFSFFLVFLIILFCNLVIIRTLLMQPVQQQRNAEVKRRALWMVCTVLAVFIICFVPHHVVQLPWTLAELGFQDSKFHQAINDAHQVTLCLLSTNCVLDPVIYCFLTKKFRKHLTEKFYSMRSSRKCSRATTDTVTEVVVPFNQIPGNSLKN

In publication PMC10084252, “PAF‐induced inflammatory and immuno‐allergic ophthalmic diseases and their mitigation with PAF receptor antagonists: Cell and nuclear effects” (Biofactors (Oxford, England), 2022):

Key:
PAF receptor [1] = target: T1, PAF receptor (Homo sapiens, UniProt P25105); experiment: [3H]‐WEB‐2086 binding to human platelet membranes; conditions: read-out: [3H]‐WEB‐2086 binding inhibition constant (Ki, nM; Mean ± SEM)
T1 construct: from tissue; host or cells: human platelet membranes
Source text: TABLE 2 [^3H]‐PAF and [^3H]‐WEB‐2086 binding inhibition constants obtained from human platelet membranes. | column: [^3H]‐WEB‐2086 binding inhibition constant (K i , nM; Mean ± SEM)

PAF receptor [2] = target: T1, PAF receptor; experiment: [3H]‐PAF binding to human platelet membranes; conditions: read-out: [3H]‐PAF receptor binding inhibition constant (Ki, nM; Mean ± SEM)
Source text: FIGURE 5 Pharmacological profile of PAR receptor binding to platelet membranes.

Ki (PAF receptor [1]): 66.3 ± 11.3 nM | Ki (PAF receptor [2]): 215 ± 12.9 nM
Structure (SMILES): CCCCCCCCCCCCCCCCCCNC(=O)OCC(COC(=O)N(Cc1cccc[n+]1CC)C(C)=O)OC (centres unmarked) [CV‐6209]
